## AlphaSeq binding of Ab-14 light chain variants to a spike HR2 peptide

Reference: Engelhart et al. 2022, doi:10.1038/s41597-022-01779-4. File: FLAb, binding data.

Target: peptide PDVDLGDISGINAS, taken from heptad repeat 2 (HR2) of SARS-CoV-2 spike.

Parent: Ab-14, a human scFv built as VH, the linker GGGGSGGGGSGGGGS, VL. Only the CDRs of the light chain vary.
VH: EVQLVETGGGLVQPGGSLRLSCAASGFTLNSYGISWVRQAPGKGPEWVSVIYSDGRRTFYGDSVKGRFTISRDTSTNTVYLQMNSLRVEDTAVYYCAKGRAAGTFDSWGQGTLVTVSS
VL: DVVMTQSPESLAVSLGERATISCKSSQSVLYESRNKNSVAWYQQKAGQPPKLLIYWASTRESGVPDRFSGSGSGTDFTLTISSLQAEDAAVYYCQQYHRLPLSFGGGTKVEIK

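The parent was found by panning a naive human phage display library on the peptide. Library AAYL50 holds single substitutions and randomly drawn double and triple substitutions in the CDRs. The assay is AlphaSeq: two haploid yeast populations carry antibody and antigen on their surface. After mating in shaken culture at 30 °C for 16 h, diploids were selected and their barcode pairs sequenced. Read counts were normalised to the haploid input and turned into Kd by a linear fit to BCL2-family pairs of known affinity, for each replicate. Mating was done three times.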

The parent's light chain CDRs are KSSQSVLYESRNKNSVA, WASTRES, QQYHRLPLS; each variant's own CDRs replace them letter for letter. Values are log10 of the apparent Kd in nM; lower means stronger binding. An entry "nd" has no value in the source: the pair was not observed among the diploids in that replicate. This suggests poor binding but is not conclusive. Parent in this assay: reference entry 0.65, copy in this library 1.68.

For KSSQSVLYESRNKNSVN | WASTIES | QQYHSLPLS, the assay gave nd, nd, nd (controls 1 of 9).
For KSSQSVLYKSRNKNSVP | WASTREQ | QQYHRLPLS, the assay gave 1.66, 1.65, 1.64 (controls 1 of 9).
For ESSQSVLYESRNKNSVA | WASTRES | GQYHRCPLS, the assay gave 3.94, 2.60, 3.68 (controls 1 of 9).
For KSSQGVLYESSNKNSVA | MASTRES | QQYHRLPLS, the assay gave 0.54, 0.88, 0.76 (controls 1 of 9).
For KSSQSVLYESRNKNSVA | QASTRES | QQYDRLPLP, the assay gave 0.01, 0.38, 0.08 (controls 1 of 9).
For KSIQSVLYESRNKNSVE | WASTRES | QQDHRLPLS, the assay gave nd, nd, 5.09 (controls 1 of 9).
For KSSQSVLYEFRNKNWVA | WASTRES | QQYNRLPLS, the assay gave nd, nd, nd (controls 0 of 9).
For KSSQSVLYESRNKNSVA | CASTRQS | QQYHRLQLS, the assay gave 1.69, 1.78, 2.04 (controls 2 of 9).
For VSSQSVLYESRNKNAVA | WASTRES | QQYHRLPLS, the assay gave 2.44, 2.46, 2.49 (controls 0 of 9).
For KSSQSVLYESRNKNSVA | WASTRER | QQYHRMPWS, the assay gave nd, nd, nd (controls 0 of 9).
For KSSQSALYESRNKMSVA | WASTRES | VQYHRLPLS, the assay gave nd, nd, nd (controls 0 of 9).
For KSSQSVLYISRQKNSVA | WASTRES | QQYWRLPLS, the assay gave 2.75, 2.54, 3.74 (controls 2 of 9).
For KFSQSVVYESRNKNSVA | WWSTRES | QQYHRLPLS, the assay gave 5.37, 4.02, nd (controls 4 of 9).
For KASQSVLYESRNKVSVA | WASTRES | QQYHRMPLS, the assay gave nd, 3.13, nd (controls 0 of 9).
For KSSQIVLYISRNKNSVA | WASTRES | QQYHRTPLS, the assay gave nd, 4.76, nd (controls 2 of 9).
For TSSQSVLYESRNKNSVA | WASTRER | QQYHRLQLS, the assay gave nd, nd, nd (controls 1 of 9).
For KLSQSVLYESRNLNSVA | WFSTRES | QQYHRLPLS, the assay gave 3.19, 2.75, 4.64 (controls 3 of 9).
For KFQQSVLYESRNKNSVA | WASTRES | QQYHHLPLS, the assay gave 1.47, 1.40, 1.35 (controls 3 of 9).
For KSSYSVLYESRNKNYVA | WASTYES | QQYHRLPLS, the assay gave nd, 1.59, nd (controls 0 of 9).
For KSSQSVLYESRNNNSVA | WASTRES | QQYHWLPTS, the assay gave 4.82, 4.67, 3.52 (controls 4 of 9).
For KSSASVLYASRHKNSVA | WASTRES | QQYHRLPLS, the assay gave 1.91, 1.77, 1.93 (controls 7 of 9).
For KSRQSVQYESRNFNSVA | WASTRES | QQYHRLPLS, the assay gave 2.40, 4.66, 2.97 (controls 3 of 9).
For KSSQSVLYESRNKNSVA | WISTREN | TQYHRLPLS, the assay gave nd, nd, 5.46 (controls 2 of 9).
For KSSQSVLYESRNKNSVA | WASTRES | QQYHRLPDS, the assay gave 0.65, 0.83, 0.87 (controls 2 of 9).
For RSSQSVLYESRNKNSVA | IASTRES | QQYHRLPLS, the assay gave nd, nd, nd (controls 2 of 9).
For KSSQSVLYEFRNKNSVA | WASTREL | QQYHRYPLS, the assay gave nd, 1.79, nd (controls 0 of 9).
For KSSQSVLYESRNSNRVA | WASTRES | QQYHPLPLS, the assay gave 1.00, 1.19, 1.33 (controls 4 of 9).
For KSSQSVLYESRNKNCVH | WASTRER | QQYHRLPLS, the assay gave nd, nd, nd (controls 0 of 9).
For KSSQSVWPESRNKNSVA | WASTRES | QQYHRLFLS, the assay gave nd, nd, nd (controls 0 of 9).
For KSSQEVLYESRCVNSVA | WASTRES | QQYHRLPLS, the assay gave 2.21, 1.70, 1.81 (controls 1 of 9).
For KSSQSVLYEGRNKNSVA | WASTFES | QQEHRLPLS, the assay gave nd, nd, nd (controls 3 of 9).
For KSSQSVLYESRNKRSCA | WASTQES | QQYHRLPLS, the assay gave nd, nd, nd (controls 0 of 9).
For KSLQSVLYESRNKNAVC | WASTRES | QQYHRLPLS, the assay gave nd, nd, nd (controls 0 of 9).
For KSSQSVLQESRWKNSVA | RASTRES | QQYHRLPLS, the assay gave 1.73, 1.77, 1.82 (controls 9 of 9).
For KSSQSMLYESRNKNSVA | IASTREV | QQYHRLPLS, the assay gave 4.33, 3.63, 4.71 (controls 0 of 9).
For KSSQSTLYESRNKQSVV | WASTRES | QQYHRLPLS, the assay gave nd, nd, nd (controls 0 of 9).
For KSSQSVLEESRNKNSYA | WASTRES | QQYHRLDLS, the assay gave 5.12, 5.49, nd (controls 1 of 9).
For TSSQSVLYESRNKNSVA | WGSTPES | QQYHRLPLS, the assay gave 3.62, 3.31, 3.62 (controls 1 of 9).
For ESSQSVMYESRNKNMVA | WASTRES | QQYHRLPLS, the assay gave nd, 3.31, nd (controls 2 of 9).
For HSSPSVLYESRNKNSVA | NASTRES | QQYHRLPLS, the assay gave -1.09, -0.61, -0.97 (controls 3 of 9).
For KSSLSVLYESRNKNSVA | WAITRES | QWYHRLPLS, the assay gave nd, 3.81, nd (controls 2 of 9).
For QSSQSVLYESRNKNSVQ | WASTRES | QQYHRLPGS, the assay gave 2.59, nd, nd (controls 1 of 9).
For KSSQSVLYWSYNKNSVA | WASTRES | IQYHRLPLS, the assay gave nd, nd, nd (controls 1 of 9).
For KSSQSVLYESRNKNSGA | WASTRES | QQYHRLPLC, the assay gave 3.93, nd, nd (controls 3 of 9).
For NNSQSVLMESRNKNSVA | WASTRES | QQYHRLPLS, the assay gave 1.83, 1.86, 1.83 (controls 1 of 9).
For KSSQSVLYESRNKNSGA | WASTRED | QQYWRLPLS, the assay gave 4.91, 4.46, 4.51 (controls 4 of 9).
For KSSRRVLYESRNKNSVA | WASTRES | QQRHRLPLS, the assay gave nd, nd, nd (controls 0 of 9).
For KSSQSVLYESRNKNSVA | MASTRES | QQYHRLPLS, the assay gave nd, 3.34, nd (controls 0 of 9).
For KSSQSVLYEARNKNSVA | WASTRES | QQYHHLPLG, the assay gave 0.97, 1.06, 1.04 (controls 3 of 9).
For KSTQSALYESRNKNSVA | WASTRMS | QQYHRLPLS, the assay gave 1.00, 1.02, 1.01 (controls 2 of 9).

Empty control strains, which show no peptide, gave a signal in 18% of pairings with library AAYL50; the median was 4.19 and 95% of these signals were weaker than 2.99. No background was subtracted. The control count says in how many pairings with the empty strains this scFv gave a signal.